{
  "sequences": {"note": "Protein sequences, listed by entry. Tags and fused reporters are not part of them. Residues count along the entry.", "UniProt Q14416, 19-872 limits assumed": "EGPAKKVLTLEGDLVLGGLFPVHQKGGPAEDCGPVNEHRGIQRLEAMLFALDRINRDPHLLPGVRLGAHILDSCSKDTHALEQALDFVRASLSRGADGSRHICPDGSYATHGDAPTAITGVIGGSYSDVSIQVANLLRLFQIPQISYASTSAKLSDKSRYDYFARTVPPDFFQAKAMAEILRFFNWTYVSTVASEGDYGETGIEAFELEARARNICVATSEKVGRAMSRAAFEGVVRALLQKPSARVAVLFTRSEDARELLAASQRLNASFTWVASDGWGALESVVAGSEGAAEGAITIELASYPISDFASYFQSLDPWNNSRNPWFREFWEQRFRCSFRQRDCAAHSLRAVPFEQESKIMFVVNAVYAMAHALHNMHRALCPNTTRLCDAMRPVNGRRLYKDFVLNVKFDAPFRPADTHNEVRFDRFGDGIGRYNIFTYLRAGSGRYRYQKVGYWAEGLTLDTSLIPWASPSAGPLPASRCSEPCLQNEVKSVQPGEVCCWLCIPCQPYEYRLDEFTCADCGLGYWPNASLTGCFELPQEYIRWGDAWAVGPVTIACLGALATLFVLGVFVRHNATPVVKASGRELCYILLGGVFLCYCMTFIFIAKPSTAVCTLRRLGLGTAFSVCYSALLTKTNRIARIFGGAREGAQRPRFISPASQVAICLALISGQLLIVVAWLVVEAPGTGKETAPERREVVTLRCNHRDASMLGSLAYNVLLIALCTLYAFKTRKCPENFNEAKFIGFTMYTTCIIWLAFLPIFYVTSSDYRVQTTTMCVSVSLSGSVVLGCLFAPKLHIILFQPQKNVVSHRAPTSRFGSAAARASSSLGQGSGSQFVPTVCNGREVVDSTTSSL"},
  "source": "patent US20090137577A1",
  "about": "“HETEROCYCLIC COMPOUNDS” (Pfizer Inc., priority 2007, published 2009)",
  "molecular_target": "mGluR2 receptor (metabotropic glutamate receptor 2) (Homo sapiens, UniProt Q14416)",
  "experiment": "mGluR2 potentiator screen (FLIPR, EC10-EC20 glutamate challenge);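 note: HEK cells stably expressing human mGluR2 with GL15 G protein, Fluo-4 calcium fluorescence read on FLIPR, compounds added before an EC10-EC20 glutamate challenge to detect potentiation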",
  "type": "cell-based",
  "conditions": "read-out: mGluR 2 EC50 (geometric mean)",
  "data": [
    {"compound": "CC1CN(Cc2ccc(O[C@@H]3C[C@H]4CC[C@@H]3C4)cc2)C(=O)O1", "note": "(stereo partly shown)", "values": [
      {"measurement": "EC50", "value": 80.1, "unit": "nM"}
    ]}
  ]
}
